Conditions: microwave 50 °C with cyclopentadiene; nosiheptide 32 h in H2O/TFE; nisin Z 16 h with 0.1 % AcOH (aq.) instead of ddH2O; LC-MS

Row | Substance | stability under microwave irradiation
1 | nisin Z | good stabilities
2 | nosiheptide | good stabilities

From PMC6790694, “Selective Modification of Ribosomally Synthesized and Post‐Translationally Modified Peptides (RiPPs) through Diels–Alder Cycloadditions on Dehydroalanine Residues” (Chemistry (Weinheim an Der Bergstrasse, Germany), 2019)
